Amino acid sequences for entries named in this document (tags omitted). Residues count along the entry.
UniProt Q03431, 27-593: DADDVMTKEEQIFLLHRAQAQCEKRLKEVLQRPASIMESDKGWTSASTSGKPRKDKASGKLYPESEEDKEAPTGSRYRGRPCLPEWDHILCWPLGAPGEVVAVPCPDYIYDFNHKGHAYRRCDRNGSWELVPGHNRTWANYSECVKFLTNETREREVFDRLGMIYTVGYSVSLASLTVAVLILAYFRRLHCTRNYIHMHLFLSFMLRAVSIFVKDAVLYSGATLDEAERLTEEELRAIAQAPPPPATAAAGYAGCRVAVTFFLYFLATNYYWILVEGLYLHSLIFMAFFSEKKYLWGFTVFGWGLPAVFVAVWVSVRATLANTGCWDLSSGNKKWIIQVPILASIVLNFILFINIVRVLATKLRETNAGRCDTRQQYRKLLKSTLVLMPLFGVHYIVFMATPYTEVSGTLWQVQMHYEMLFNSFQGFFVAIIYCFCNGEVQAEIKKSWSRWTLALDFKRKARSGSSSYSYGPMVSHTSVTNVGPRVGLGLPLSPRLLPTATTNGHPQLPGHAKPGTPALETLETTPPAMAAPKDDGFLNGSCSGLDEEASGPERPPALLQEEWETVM

According to article PMC11456535, “Receptor activity-modifying protein modulation of parathyroid hormone-1 receptor function and signaling” (Frontiers in Pharmacology, 2024):

Experiments:
[1] = biological target: PTH1R of the PathHunter CHO-K1 PTH1R β-arrestin cell line (UniProt Q03431)
[2] = biological target: PTH1R of the PathHunter CHO-K1 PTH1R β-arrestin cell line (UniProt Q03431); remark: listed apart in the source

Substance PTHrP (1-34) (peptide) has an efficacy, cAMP accumulation (Gαs), CHO-K1 PTH1R + RAMP2 cells [1] of 93.9%, an efficacy, cAMP accumulation (Gαs), CHO-K1 PTH1R + RAMP3 cells [1] of 85.3% and an efficacy, cAMP accumulation (Gαs), CHO-K1 PTH1R parental cells (mock) [1] of 90.1%. For the same substance, the efficacy, cAMP accumulation after pertussis toxin (cAMP + PTX), CHO-K1 PTH1R + RAMP2 cells [1] was 94.5%, the efficacy, cAMP accumulation after pertussis toxin (cAMP + PTX), CHO-K1 PTH1R + RAMP3 cells [1] was 70.5% and the efficacy, cAMP accumulation after pertussis toxin (cAMP + PTX), CHO-K1 PTH1R parental cells (mock) [1] was 78%. The efficacy, calcium influx (Gαq), CHO-K1 PTH1R + RAMP2 cells [1] was 83.4%, the efficacy, β-arrestin recruitment, CHO-K1 PTH1R + RAMP2 cells [1] was 105% and the efficacy, β-arrestin recruitment, CHO-K1 PTH1R parental cells (mock) [1] was 6.75%. It also gave a pEC50, cAMP accumulation (Gαs), CHO-K1 PTH1R + RAMP2 cells [1] of 10.8 pEC50, a pEC50, cAMP accumulation (Gαs), CHO-K1 PTH1R + RAMP3 cells [1] of 9 pEC50 and a pEC50, cAMP accumulation (Gαs), CHO-K1 PTH1R parental cells (mock) [1] of 9.55 pEC50. It also gave a pEC50, cAMP accumulation after pertussis toxin (cAMP + PTX), CHO-K1 PTH1R + RAMP2 cells [1] of 10.7 pEC50, a pEC50, cAMP accumulation after pertussis toxin (cAMP + PTX), CHO-K1 PTH1R + RAMP3 cells [1] of 8.85 pEC50 and a pEC50, cAMP accumulation after pertussis toxin (cAMP + PTX), CHO-K1 PTH1R parental cells (mock) [1] of 9.57 pEC50. The pEC50, calcium influx (Gαq), CHO-K1 PTH1R + RAMP2 cells [1] was 6.65 pEC50, the pEC50, β-arrestin recruitment, CHO-K1 PTH1R + RAMP2 cells [1] was 8.17 pEC50 and the pEC50, β-arrestin recruitment, CHO-K1 PTH1R parental cells (mock) [1] was 8.5 pEC50. The efficacy, cAMP accumulation, CHO-K1 PTH1R + RAMP2 cells, Table 7 [2] was 94%, the efficacy, cAMP accumulation, CHO-K1 PTH1R + RAMP3 cells, Table 7 [2] was 86.7% and the efficacy, cAMP accumulation, CHO-K1 PTH1R parental cells (mock), Table 7 [2] was 91.1%. The pEC50, cAMP accumulation, CHO-K1 PTH1R + RAMP3 cells, Table 7 [2] was 8.98 pEC50 and the pEC50, cAMP accumulation, CHO-K1 PTH1R parental cells (mock), Table 7 [2] was 9.53 pEC50.
